Amino acid sequences for entries named in this document (tags omitted). A change or cut given only in a name is not applied to a line headed by its entry.
UniProt P49841: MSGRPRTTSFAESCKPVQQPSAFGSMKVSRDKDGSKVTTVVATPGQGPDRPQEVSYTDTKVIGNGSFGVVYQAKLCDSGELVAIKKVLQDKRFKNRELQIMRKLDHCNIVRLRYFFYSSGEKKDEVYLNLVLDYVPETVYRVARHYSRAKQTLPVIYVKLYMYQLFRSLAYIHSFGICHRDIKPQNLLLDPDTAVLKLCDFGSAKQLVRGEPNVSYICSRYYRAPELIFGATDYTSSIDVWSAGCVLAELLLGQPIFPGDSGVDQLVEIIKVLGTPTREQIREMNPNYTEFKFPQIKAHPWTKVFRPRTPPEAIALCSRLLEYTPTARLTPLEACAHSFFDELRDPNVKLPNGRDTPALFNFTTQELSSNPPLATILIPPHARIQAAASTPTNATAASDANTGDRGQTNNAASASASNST
UniProt P06239: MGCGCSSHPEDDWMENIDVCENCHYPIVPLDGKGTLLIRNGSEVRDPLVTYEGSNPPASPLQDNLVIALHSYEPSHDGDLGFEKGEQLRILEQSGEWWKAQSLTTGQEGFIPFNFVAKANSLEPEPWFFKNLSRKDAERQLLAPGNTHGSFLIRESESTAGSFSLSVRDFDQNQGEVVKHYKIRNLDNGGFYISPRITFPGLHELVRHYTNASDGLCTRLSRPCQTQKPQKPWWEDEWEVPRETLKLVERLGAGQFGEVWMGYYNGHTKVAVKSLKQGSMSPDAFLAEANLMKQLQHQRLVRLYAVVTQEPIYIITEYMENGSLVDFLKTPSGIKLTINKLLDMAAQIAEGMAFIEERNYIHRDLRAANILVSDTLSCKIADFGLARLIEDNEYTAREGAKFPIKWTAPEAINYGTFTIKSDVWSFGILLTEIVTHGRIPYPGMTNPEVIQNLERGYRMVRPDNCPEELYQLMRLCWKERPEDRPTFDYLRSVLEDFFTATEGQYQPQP
UniProt P12931: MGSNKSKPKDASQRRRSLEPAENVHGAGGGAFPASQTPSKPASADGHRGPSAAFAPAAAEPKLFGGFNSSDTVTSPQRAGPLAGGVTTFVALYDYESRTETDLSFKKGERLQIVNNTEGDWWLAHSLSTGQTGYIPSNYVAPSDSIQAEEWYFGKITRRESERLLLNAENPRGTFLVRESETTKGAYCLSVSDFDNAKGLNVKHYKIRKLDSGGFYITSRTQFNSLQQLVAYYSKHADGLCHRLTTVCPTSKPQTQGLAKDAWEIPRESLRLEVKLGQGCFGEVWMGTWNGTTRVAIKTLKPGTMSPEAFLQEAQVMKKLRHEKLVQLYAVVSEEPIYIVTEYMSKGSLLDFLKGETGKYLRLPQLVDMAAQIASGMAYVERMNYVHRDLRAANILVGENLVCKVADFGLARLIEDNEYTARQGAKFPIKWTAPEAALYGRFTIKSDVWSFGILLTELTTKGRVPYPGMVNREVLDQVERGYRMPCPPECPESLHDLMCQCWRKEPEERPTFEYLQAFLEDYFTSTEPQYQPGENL

According to ChEMBL document CHEMBL1147701, “Novel 4-anilinoquinazolines with C-6 carbon-linked side chains: synthesis and structure-activity relationship of a series of potent, orally active, EGF receptor tyrosine kinase inhibitors” (Bioorg Med Chem Lett, 2006):

Tests used:
[1] = molecular target: T1, Serine/threonine-protein kinase Chk1 (Homo sapiens, UniProt O14757); assay: Inhibition of CHK1
T1 sequence (O14757 whole entry): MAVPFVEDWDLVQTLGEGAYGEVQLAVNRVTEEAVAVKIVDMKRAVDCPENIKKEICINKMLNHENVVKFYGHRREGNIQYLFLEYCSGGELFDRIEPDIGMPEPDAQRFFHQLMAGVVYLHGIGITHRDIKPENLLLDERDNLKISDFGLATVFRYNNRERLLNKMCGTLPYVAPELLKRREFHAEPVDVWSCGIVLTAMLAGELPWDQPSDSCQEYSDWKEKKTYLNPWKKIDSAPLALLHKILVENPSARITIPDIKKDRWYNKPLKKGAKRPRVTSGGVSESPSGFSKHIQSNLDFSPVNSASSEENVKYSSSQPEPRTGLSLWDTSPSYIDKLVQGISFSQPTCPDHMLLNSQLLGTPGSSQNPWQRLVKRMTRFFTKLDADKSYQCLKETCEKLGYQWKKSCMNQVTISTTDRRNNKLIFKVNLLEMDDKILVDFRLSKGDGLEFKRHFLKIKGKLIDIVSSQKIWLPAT

[2] = molecular target: Glycogen synthase kinase-3 beta (Homo sapiens, UniProt P49841); assay: Inhibition of GSK3-beta
[3] = molecular target: Tyrosine-protein kinase Lck (Homo sapiens, UniProt P06239)
[4] = molecular target: Proto-oncogene tyrosine-protein kinase Src (Homo sapiens, UniProt P12931); assay: Inhibition of Src

| IC50 [1] [µM] | IC50 [2] [µM] | IC50 [3] [µM] | IC50 [4] [µM] | SMILES |
| --- | --- | --- | --- | --- |
| > 10 | > 10 |  |  | COc1cc2ncnc(Nc3cccc(Cl)c3F)c2cc1CN[C@H](C)C(N)=O |
|  | > 10 | > 10 | > 10 | COc1cc2ncnc(Nc3cccc(Cl)c3F)c2cc1CN(C)CC(N)=O |
